pIC50: −log10 of the molar value.
test: Antagonist activity at CCR4 in human CCRF-CEM cells assessed as inhibition of CCL22-mediated chemotaxis in presence of 100% human serum pre-incubated for 30 mins followed by CCL22 addition and measured after 60 mins by chemoTX probe based CellTiter-Glo assay

| Compound | pIC50 |
| --- | --- |
| Cc1nn([C@H](C)c2ccc(Cl)cc2Cl)c2nc(N3CC[C@H](N4CCC[C@H]4CO)[C@H](C)C3)cnc12 [US10246462, Example 31] | 6.82 |
| Cc1nn([C@H](C)c2ccc(Cl)cc2Cl)c2nc(N3CC[C@H](N4CCC4)[C@H](C)C3)cnc12 [US10246462, Example 13] | 6.66 |
| Cc1nn([C@H](C)c2ccc(Cl)cc2Cl)c2nc(N3CC[C@H](N4CCCCCC4)[C@H](C)C3)cnc12 [US10246462, Example 14] | 6.71 |

Reference: BindingDB's records for doi:10.1021/acs.jmedchem.9b00506 (Rapt Therapeutics, 2019)
